From paper PMC7365253 (Journal of the American Chemical Society, 2020)

Amino acid sequences for entries named in this document (tags omitted). Residues count along the entry.
UniProt P00813, 2-363: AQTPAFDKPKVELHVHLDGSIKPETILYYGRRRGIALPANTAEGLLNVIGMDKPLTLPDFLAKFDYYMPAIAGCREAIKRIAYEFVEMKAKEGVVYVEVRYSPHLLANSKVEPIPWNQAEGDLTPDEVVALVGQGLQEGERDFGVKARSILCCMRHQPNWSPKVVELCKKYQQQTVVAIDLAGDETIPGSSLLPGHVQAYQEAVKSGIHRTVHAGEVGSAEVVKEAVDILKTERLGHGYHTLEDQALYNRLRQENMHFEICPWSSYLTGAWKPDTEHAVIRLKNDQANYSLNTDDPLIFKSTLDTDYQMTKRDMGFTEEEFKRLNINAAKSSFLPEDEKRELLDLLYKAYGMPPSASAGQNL

Biological target: adenosine deaminase (ADA) (Homo sapiens, UniProt P00813)

`Nc1nc(Cl)nc2c1ncn2[C@H]1C[C@H](O)[C@@H](CO)O1` [Cladribine] was tested, and the “recombinant ADA enzymatic activity assay, 10 μM” value was “a result similarly observed for treatment of the active-site inhibitor Cladribine during the assay (Figure 6D)”.
